Only a part is listed here, and it is no random draw. Active and inactive are the calls of the source. No stated cut-off is given here; in the data, active means inhibition above about 22% (passing the limit was not always enough); inactive means the rest.

By UniProt entry, the sequences of proteins in these tests, tags left out.
UniProt P35372, whole entry, looked up: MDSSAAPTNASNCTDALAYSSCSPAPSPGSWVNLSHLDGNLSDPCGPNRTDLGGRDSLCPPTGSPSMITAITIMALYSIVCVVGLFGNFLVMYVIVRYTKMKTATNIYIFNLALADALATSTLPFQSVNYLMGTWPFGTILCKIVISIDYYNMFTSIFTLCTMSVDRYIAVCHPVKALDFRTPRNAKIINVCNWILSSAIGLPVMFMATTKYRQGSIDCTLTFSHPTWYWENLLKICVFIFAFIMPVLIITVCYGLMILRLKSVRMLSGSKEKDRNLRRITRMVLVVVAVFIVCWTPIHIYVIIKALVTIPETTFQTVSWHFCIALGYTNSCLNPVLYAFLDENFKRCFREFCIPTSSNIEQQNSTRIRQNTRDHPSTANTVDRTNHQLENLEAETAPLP
UniProt P41143, whole entry, looked up: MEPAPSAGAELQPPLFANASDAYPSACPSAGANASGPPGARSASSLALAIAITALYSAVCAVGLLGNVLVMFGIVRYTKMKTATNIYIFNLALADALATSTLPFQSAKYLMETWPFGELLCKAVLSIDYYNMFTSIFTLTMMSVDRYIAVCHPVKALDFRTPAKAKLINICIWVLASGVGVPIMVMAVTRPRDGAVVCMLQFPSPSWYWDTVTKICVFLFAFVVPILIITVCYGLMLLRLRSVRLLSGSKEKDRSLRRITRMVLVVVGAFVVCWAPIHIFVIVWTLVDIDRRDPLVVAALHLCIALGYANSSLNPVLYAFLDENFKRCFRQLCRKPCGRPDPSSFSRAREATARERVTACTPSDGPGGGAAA

The assay deals with Mu-type opioid receptor (Homo sapiens) + Delta-type opioid receptor (Homo sapiens) (UniProt P35372+P41143). Kind of assay: inverse agonists of MOR-DOR heterodimerization, primary screen, cell-based, luminescence (AID 504357).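 Further: 0% = cells with DMSO and 100% = wells without cells with DMSO.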 The conditions noted are these: cell-based MOR-DOR heterodimer luminescence, inverse agonism; at 9.3 µM; active compounds read high.
As usually defined, the inhibition is the relative decrease from the control value, in per cent. Regarding `O=C(NCC1(N2CCOCC2)CCCCC1)c1cc(F)c(F)cc1Cl`, the inhibition was inactive: 1.78%.

For `COc1cc(OC)c(C(=O)NCC2(N(C)C)CCCCC2)cc1OC`, the inhibition is inactive: 10.4%.

On to `CN(C)c1cccc(C(=O)NCC2(N3CCCCC3)CCCCC2)c1`, for which the inhibition is inactive: -10.4%.

In the case of `COc1ccc(CN(CCCl)CCCl)cc1Cl`, the inhibition is inactive: 8.34%.

`CC(C)c1ccc(NC2CCN(C(=O)OC(C)(C)C)CC2)cc1`: the inhibition is inactive: -57.5%.

In the case of `CCCOc1ccc(C(=O)NCC2(N(C)C)CCCCC2)cc1OC`, the inhibition is inactive: -15.6%.

With `O=C(NCC1(N2CCCCC2)CCCCC1)c1cncc(Br)c1`, the inhibition was inactive: 9.94%.

With `CN1CCC(Nc2cccc(F)c2)CC1`, the inhibition was inactive: 0.39%.

As for `O=C(NCC1(N2CCCCC2)CCCCC1)c1cccc([N+](=O)[O-])c1`, the inhibition is inactive: 11.5%.

As for `CSc1ccc(C(=O)NCC2(N3CCOCC3)CCCCC2)cc1`, the inhibition was inactive: 0.95%.

In the case of `N#CC1(Nc2ccccc2)CCN(CCc2ccccc2)CC1`, the inhibition was inactive: 10.2%.

Turning to `CCN1CCC(Nc2ccc(Cl)cc2)CC1`, the inhibition is inactive: 12.7%.

As for `O=C(NCC1(N2CCCCC2)CCCCC1)c1ccc(OC(F)F)cc1`, the inhibition was inactive: 10.3%.

On to `CC(C)c1ccc(C(=O)NCC2(N3CCOCC3)CCCCC2)cc1`, for which the inhibition is inactive: 3.49%.

On to `COc1ccc(NC2CCN(C(=O)OC(C)(C)C)CC2)cc1`, for which the inhibition is inactive: 9.93%.

For `CN1CCN(CCOC(=O)C(O)(c2ccccc2)c2ccccc2)CC1`, the inhibition was inactive: 13.4%.

For `O=C(NCC1(N2CCOCC2)CCCCC1)c1cc(=O)[nH]c2ccccc12`, the inhibition is inactive: -0.6%.

`COc1cc(C(=O)NCC2(N3CCCCC3)CCCCC2)ccc1OC(F)F`: the inhibition is inactive: -8.48%.

`O=C(NCC1(N2CCCCC2)CCCCC1)c1cccc(C(F)(F)F)c1`: the inhibition is inactive: 11.9%.

Turning to `CCOC(=O)N1CCC(Nc2ccc(F)cc2)CC1`, the inhibition is inactive: 16.8%.

As for `COc1ccc(NC2CCN(CCc3ccccc3)CC2)c(OC)c1`, the inhibition is inactive: -10%.

For `O=C(NCC1(N2CCCCC2)CCCCC1)c1ccc(F)cc1`, the inhibition is inactive: 9.93%.

Consider `CCCCOc1ccc(C(=O)NCC2(N3CCOCC3)CCCCC2)cc1`, for which the inhibition is inactive: -3.64%.

Turning to `O=P1(N(CCCl)CCCl)SCCCS1`, the inhibition was inactive: 6.36%.

As to `CCOc1ccc(C)cc1CN(CCCl)CCCl`, the inhibition is inactive: 8%.

For the compound `O=C1CCN(Cc2ccccc2)CC1`, the inhibition was inactive: -2.66%.

As for `COc1cc(C(=O)NCC2(N(C)C)CCCCC2)ccc1OC(F)F`, the inhibition is inactive: -57%.

Regarding `CCOC(=O)N1CCC(Nc2cccc(C)c2)CC1`, the inhibition was inactive: 1.99%.

For the compound `Cc1cccc(NC2(C#N)CCN(Cc3ccccc3)CC2)c1`, the inhibition was inactive: 3.98%.

Consider `CSc1ccccc1C(=O)NCC1(N2CCCCC2)CCCCC1`, for which the inhibition is inactive: 9.28%.

Regarding `O=C(NCC1(N2CCCCC2)CCCCC1)c1cccs1`, the inhibition is inactive: 8.15%.

`O=C(NCC1(N2CCCCC2)CCCCC1)c1ccc(=O)[nH]c1`: the inhibition was inactive: 4.94%.

`CC(C)(C)OC(=O)N1CCC(N(C(=O)c2ccccc2)c2ccc(F)cc2)CC1`: the inhibition is inactive: 12.3%.

Turning to `COc1ccc(C(=O)NCC2(N3CCCCC3)CCCCC2)c(OC)c1OC`, the inhibition was inactive: 6.79%.

With `COc1ccc(C(=O)NCC2(N3CCCCC3)CCCCC2)cc1`, the inhibition is inactive: 10.5%.

Turning to `CCOC(=O)N1CCC(Nc2ccc(OC)cc2)CC1`, the inhibition was inactive: -2.33%.

Take `COc1ccc(Cl)cc1C(=O)NCC1(N2CCOCC2)CCCCC1`: the inhibition is inactive: 7.76%.

`O=C(OC1CN2CCC1CC2)C1c2ccccc2Oc2ccccc21` (centres undefined): the inhibition is inactive: -0.48%.

Regarding `O=C(NCC1(N2CCCCC2)CCCCC1)c1ccc(Cl)s1`, the inhibition is inactive: 4.38%.

In the case of `N#CC1(Nc2ccccc2)CCN(Cc2ccccc2)CC1`, the inhibition is inactive: 8.41%.

Turning to `O=C(NCC1(N2CCOCC2)CCCCC1)c1cc2ccccc2o1`, the inhibition was inactive: -2.95%.

Regarding `Cc1cc(C)cc(N(C(=O)c2ccccc2)C2CCN(C(=O)OC(C)(C)C)CC2)c1`, the inhibition was inactive: -14.9%.

Turning to `O=C(NCC1(N2CCCCC2)CCCCC1)c1ccc(Cl)nc1`, the inhibition is inactive: -1.81%.

For the compound `CCCOc1ccc(C(=O)NCC2(N(C)C)CCCCC2)cc1`, the inhibition was inactive: -24.9%.

As for `O=C(O)C1(Nc2ccccc2)CCN(Cc2ccccc2)CC1`, the inhibition is inactive: -13.7%.

As for `CC(C)(C)OC(=O)N1CCC(Nc2ccccc2)CC1`, the inhibition is inactive: 8.88%.

On to `CN1CCC(Nc2ccc(F)c(Cl)c2)CC1`, for which the inhibition is inactive: 8.37%.

As to `CCOc1ncccc1C(=O)NCC1(N2CCOCC2)CCCCC1`, the inhibition is inactive: 8.16%.

On to `CN1CCC(Nc2ccc(Cl)cc2)CC1`, for which the inhibition was inactive: 5.43%.

With `CCC(CO)(C(=O)OC1CN2CCC1CC2)c1ccccc1` (centres undefined), the inhibition was inactive: -2.5%.

For `COc1cccc(C(=O)N(c2cc(C)cc(C)c2)C2CCN(C(=O)OC(C)(C)C)CC2)c1`, the inhibition was inactive: -23.9%.

For `COc1cc(OC)cc(C(=O)NCC2(N3CCOCC3)CCCCC2)c1`, the inhibition is inactive: -6.13%.

Regarding `Cc1ccc(NC2(C#N)CCN(Cc3ccccc3)CC2)cc1`, the inhibition is inactive: -1.81%.

On to `Fc1ccccc1NC1CCN(Cc2ccccc2)CC1`, for which the inhibition was inactive: 1.36%.

As for `Cc1ccc(C(=O)NCC2(N3CCCCC3)CCCCC2)o1`, the inhibition was inactive: 8.75%.

With `COc1cc(OC)cc(C(=O)NCC2(N3CCCCC3)CCCCC2)c1`, the inhibition was inactive: 1.88%.

Take `CC(=O)N(c1ccccc1)C1CCNCC1`: the inhibition is inactive: 17.6%.

As to `Cn1c(=O)[nH]cc(N(CCCl)CCCl)c1=O`, the inhibition is inactive: 11.1%.

On to `CN(C)c1ccc(C(=O)NCC2(N3CCCCC3)CCCCC2)cc1`, for which the inhibition was inactive: 3.23%.

`O=C(NCC1(N2CCCCC2)CCCCC1)c1ccco1`: the inhibition is inactive: 9.21%.

Take `CCN1CCC(Nc2cccc(F)c2)CC1`: the inhibition is inactive: -3.09%.

With `Cc1ccccc1NC1(C#N)CCN(Cc2ccccc2)CC1`, the inhibition was inactive: 14.7%.

For the compound `CC(C)(C)OC(=O)N1CCC(N(C(=O)c2ccccc2)c2ccc(Cl)cc2)CC1`, the inhibition is inactive: -4.61%.

In the case of `N#Cc1ccc(C(=O)NCC2(N3CCCCC3)CCCCC2)cc1`, the inhibition is inactive: 4.66%.

Take `Cc1cc(N(CCCl)CCCl)ccc1C=O`: the inhibition was inactive: 13.3%.

With `CCCN1CCC(Nc2cc(OC)cc(OC)c2)CC1`, the inhibition was inactive: -11.7%.

Turning to `c1ccc(CN2CCC(Nc3ccccc3)CC2)cc1`, the inhibition was inactive: 4.71%.

Turning to `CN(C)C1(CNC(=O)c2cccc(C#N)c2)CCCCC1`, the inhibition is inactive: 10.7%.

With `COc1ccc(C(=O)NCC2(N3CCOCC3)CCCCC2)cc1OC`, the inhibition is inactive: 1.07%.

For the compound `O=C(NCC1(N2CCOCC2)CCCCC1)c1cc(Br)ccc1Cl`, the inhibition was inactive: -24.2%.

Turning to `COc1cc(C(=O)NCC2(N3CCOCC3)CCCCC2)cc(OC)c1C`, the inhibition is inactive: -5.21%.

For `O=C(OC1CN2CCC1CC2)C1c2ccccc2C=Cc2ccccc21` (centres undefined), the inhibition was inactive: -6.03%.

On to `N/C(=N\O)c1c(N)no[n+]1[O-]`, for which the inhibition was inactive: 8.53%.

As for `CCOC(=O)N1CCC(Nc2ccc(C)cc2)CC1`, the inhibition was inactive: 14.1%.

(Values after PubChem BioAssay AID504357 (The Scripps Research Institute Molecular Screening Center, 2011).)
